Source: PubChem BioAssay AID1259310 (The Scripps Research Institute Molecular Screening Center, 2017)
The entries are a selection whose mix differs from that of the whole data set. Some salts and complexes are drawn in separate pieces, as the source files them; their charges need not balance. Calls of active or inactive are those of the source. Rule as the data show it: active = normalized activity above about 1.9%; inactive = the rest.

The chains behind the UniProt entries cited, without tags or fusion partners. Where a name states a change or a piece, a line headed by the entry shows the natural chain unless it says otherwise.
UniProt Q969H0, whole entry, stated change not applied: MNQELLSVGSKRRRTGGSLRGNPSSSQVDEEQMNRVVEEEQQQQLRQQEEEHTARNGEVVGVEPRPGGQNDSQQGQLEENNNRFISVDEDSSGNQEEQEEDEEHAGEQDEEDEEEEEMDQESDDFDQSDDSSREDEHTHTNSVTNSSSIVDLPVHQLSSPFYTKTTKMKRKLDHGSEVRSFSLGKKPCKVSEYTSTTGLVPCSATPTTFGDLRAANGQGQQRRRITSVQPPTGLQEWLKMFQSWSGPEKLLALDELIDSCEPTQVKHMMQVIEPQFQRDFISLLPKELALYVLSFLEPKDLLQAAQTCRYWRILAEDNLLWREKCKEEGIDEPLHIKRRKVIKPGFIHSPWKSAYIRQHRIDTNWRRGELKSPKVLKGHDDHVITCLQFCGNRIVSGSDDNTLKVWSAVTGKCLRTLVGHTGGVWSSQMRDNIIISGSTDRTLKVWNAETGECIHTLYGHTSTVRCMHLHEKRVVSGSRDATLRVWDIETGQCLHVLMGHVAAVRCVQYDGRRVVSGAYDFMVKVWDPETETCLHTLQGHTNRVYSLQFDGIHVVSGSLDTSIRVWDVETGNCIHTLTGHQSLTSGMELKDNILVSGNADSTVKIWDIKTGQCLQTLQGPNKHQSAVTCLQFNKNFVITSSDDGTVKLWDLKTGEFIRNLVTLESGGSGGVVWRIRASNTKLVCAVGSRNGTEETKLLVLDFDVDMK

Target: F-box/WD repeat-containing protein 7 (Homo sapiens) (UniProt Q969H0)
Assay: FBW7 E3 ligase activators, primary screen, biochemical, AlphaScreen, human (AID 1259310);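 also: purified mutant Fbw7 with reduced substrate affinity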
Conditions: AlphaScreen FBW7–phospho-cyclin E peptide binding, activator screen; at 26.1 µM; hits give high values

Row | SMILES | normalized activity (activation)
1 | CP(=O)(O)Oc1cccc(Cl)c1Cl | inactive: 0.08%
2 | Cc1cc(-c2cccc3ccccc23)c(C)cn1.O=[N+]([O-])c1cc([N+](=O)[O-])c(O)c([N+](=O)[O-])c1 | inactive: 0.45%
3 | O=[N+]([O-])c1cc([N+](=O)[O-])c(NCC2CCS(=O)(=O)C2)c([N+](=O)[O-])c1 (centres undefined) | inactive: 0.73%
4 | O=[N+]([O-])c1cc([N+](=O)[O-])c(Nc2c([N+](=O)[O-])cc([N+](=O)[O-])cc2[N+](=O)[O-])c([N+](=O)[O-])c1 | inactive: -0.06%
5 | CN(C)CCOC(=O)C(O)(c1ccccc1)C1CCCCC1 (centres undefined) | inactive: 0.61%
6 | COc1ccc(NP(C)(=O)Oc2ccccc2OC)cc1 (centres undefined) | inactive: -0.18%
7 | CC(=O)OC1(C#N)CN2CCC1CC2 (centres undefined) | inactive: -0.06%
8 | C=CCN1CCN(CCOC(=O)C(O)(c2ccccc2)c2ccccc2)CC1 | inactive: -0.13%
9 | O=[N+]([O-])c1ccc(Nc2c([N+](=O)[O-])cc([N+](=O)[O-])cc2[N+](=O)[O-])cc1 | inactive: -0.62%
10 | Cc1ccccc1NP(C)(=O)Nc1ccccc1C | inactive: 0.05%
11 | COC(=O)Nc1nc2ccccc2[nH]1.O=C1CCCN1c1ccc(S(=O)(=O)O)cc1[N+](=O)[O-] | inactive: 0.16%
12 | CCN(CC)c1c([N+](=O)[O-])cc([N+](=O)[O-])cc1[N+](=O)[O-] | inactive: -0.15%
13 | CP(=O)(Nc1ccc2c(c1)OCCO2)Oc1ccccc1 (centres undefined) | inactive: 0.24%
14 | [N-]=[N+]=NCN1c2nonc2N(CN=[N+]=[N-])c2nonc21 | inactive: -0.21%
15 | Cc1ccc(Cl)c(OP(C)(=O)Nc2ccc(F)cc2)c1 (centres undefined) | inactive: -0.16%
16 | Cc1c([N+](=O)[O-])c(C)c([N+](=O)[O-])c(C)c1[N+](=O)[O-] | inactive: 0.34%
17 | CP(=O)(O)OC(c1ccccc1)C(F)(F)C(F)(F)F (centres undefined) | inactive: 0.6%
18 | COc1ccc(OP(C)(=O)Nc2ccccc2)cc1 (centres undefined) | inactive: -0.14%
19 | CP(=O)(Nc1cccnc1)Oc1ccc(Cl)cc1 (centres undefined) | inactive: 0.16%
20 | Cc1cc([N+](=O)[O-])c(NCC(C)([N+](=O)[O-])[N+](=O)[O-])c([N+](=O)[O-])c1[N+](=O)[O-] | inactive: 0.04%
21 | O=C(OCCN1CCN(CCOCc2ccccc2)CC1)C(O)(c1ccccc1)c1ccccc1 | inactive: 0.05%
22 | CP(=O)(Nc1ccccc1F)Oc1ccccc1 (centres undefined) | inactive: -0.09%
23 | C=CCNc1c([N+](=O)[O-])cc([N+](=O)[O-])c(C)c1[N+](=O)[O-] | inactive: -0.16%
24 | CCP1(=O)Oc2cc(C(C)(C)C)cc(C(C)(C)C)c2O1 (centres undefined) | inactive: 0.16%
25 | Nc1c([N+](=O)[O-])cc([N+](=O)[O-])c2nonc12 | inactive: -0.04%
26 | CP(=O)(Nc1ccccc1)Oc1ccc(F)cc1 (centres undefined) | inactive: -0.03%
27 | Cc1ccc(NP(C)(=O)Oc2ccc(Cl)cc2)cc1 (centres undefined) | inactive: 0.99%

Row | SMILES | normalized activity (activation)
28 | CP(=O)(O)OC(c1ccccc1)C(Cl)(Cl)Cl (centres undefined) | inactive: 0.5%
29 | COc1cc2c(cc1NP(C)(=O)Oc1ccccc1)oc1ccccc12 (centres undefined) | inactive: -0.05%
30 | CCOC(=O)c1ccc(NP(C)(=O)Oc2ccc(F)cc2)cc1 (centres undefined) | inactive: -0.18%
31 | Cc1ccc(Cl)c(OP(C)(=O)Nc2cccnc2)c1 (centres undefined) | inactive: -0.02%
32 | O=C(c1c([N+](=O)[O-])cc([N+](=O)[O-])cc1[N+](=O)[O-])N1CCOCC1 | inactive: -0.13%
33 | CP(=O)(Nc1ccc(Cl)cc1Cl)Oc1ccccc1 (centres undefined) | inactive: 0.03%
34 | O=[N+]([O-])c1cc([N+](=O)[O-])c(N2CCCCCC2)c([N+](=O)[O-])c1 | inactive: -0.45%
35 | CP(=O)(OCCOc1ccccc1)OCCOc1ccccc1 | inactive: 0.01%
36 | COCC(CN(C)[N+](=O)[O-])O[N+](=O)[O-] (centres undefined) | inactive: -0.1%
37 | Cc1cccc(C)c1OP(C)(=O)Nc1ccccc1 (centres undefined) | inactive: 0.09%
38 | COc1ccccc1OP(C)(=O)Nc1ccc(C)c(C)c1 (centres undefined) | inactive: -0.1%
39 | COc1ccc(OP(C)(=O)Nc2ccccc2Br)cc1 (centres undefined) | inactive: 0.35%
40 | CCCCOc1ccc(NP(C)(=O)Oc2ccccc2OC)cc1 (centres undefined) | inactive: -0.08%
41 | C/C1=C2N=C(/C=C3N=C(/C(C)=C4\[N-][C@@](C)([C@@H]5N=C1[C@](C)(CCC(=O)NC[C@@H](C)OP(=O)(O)O[C@H]1[C@@H](O)[C@@H](n6cnc7cc(C)c(C)cc76)O[C@@H]1CO)[C@H]5CC(N)=O)[C@@](C)(CC(N)=O)[C@@H]4CCC(N)=O)[C@@](C)(CC(N)=O)[C@@H]\3CCC(N)=O)C(C)(C)[C@@H]/2CCC(N)=O.[C-]#N.[Co+3] | inactive: -0.41%
42 | CP(=O)(Nc1ccc(F)cc1)Oc1ccc(Cl)cc1 (centres undefined) | inactive: -0.34%
43 | CC(CN(C)C)OC(=O)C(O)(c1ccccc1)c1ccccc1 (centres undefined) | inactive: 0.2%
44 | Cc1c(NP(C)(=O)Oc2ccc(C(C)C)cc2)c(=O)n(-c2ccccc2)n1C (centres undefined) | inactive: 1.15%
45 | CCOP(C)(=S)SCN(CC(=O)O)C(=O)OCc1ccccc1 (centres undefined) | inactive: 0.04%
46 | Nc1c([N+](=O)[O-])cc([N+](=O)[O-])c(Nc2ccccc2C(=O)O)c1[N+](=O)[O-] | inactive: 0.72%
47 | O=[N+]([O-])c1cc([N+](=O)[O-])c(Nc2ccccn2)c([N+](=O)[O-])c1 | inactive: -0.5%
48 | COc1ccc(OP(C)(=O)Nc2ccccn2)cc1 (centres undefined) | inactive: -0.08%
49 | CCN(CC)CCOC(=O)C(O)(c1ccccc1)C1CCCCC1 (centres undefined) | inactive: 0.29%
50 | CN(C)CCOC(=O)C(O)(c1ccccc1)C1CCCC1 (centres undefined) | inactive: -0.27%
51 | CN(C)c1c([N+](=O)[O-])cc([N+](=O)[O-])c(N(C)C)c1[N+](=O)[O-] | inactive: -0.11%
52 | NC(=O)c1c([N+](=O)[O-])cc([N+](=O)[O-])cc1[N+](=O)[O-] | inactive: 0.04%
53 | COc1ccccc1OP(C)(=O)Nc1ccc(Br)cc1 (centres undefined) | inactive: 0.01%
54 | CN(C)C(=O)c1c([N+](=O)[O-])cc([N+](=O)[O-])cc1[N+](=O)[O-] | inactive: -0.02%
